For one experiment, the target named is T1, A2 receptor (Cavia porcellus, UniProt P46616).
T1 construct: isolated perfused guinea pig heart; from tissue; host or cells: isolated perfused guinea pig heart (coronary circulation)
The experiment is described as follows: Antagonism of A2 receptor-mediated coronary vasodilation (coronary conductance) caused by adenosine, isolated perfused heart. Also noted: species or system guinea pig. The text has this:
. The values are the mean±SEM from five guinea pig hearts. […]
1. Functional studies. […]
Potency of various alkylxanthines to antagonize A2
of a maximum coronary vasodilation caused by adenosine. Values in […]

Amino acid sequences for entries named in this document (tags omitted).
UniProt P46616, whole entry: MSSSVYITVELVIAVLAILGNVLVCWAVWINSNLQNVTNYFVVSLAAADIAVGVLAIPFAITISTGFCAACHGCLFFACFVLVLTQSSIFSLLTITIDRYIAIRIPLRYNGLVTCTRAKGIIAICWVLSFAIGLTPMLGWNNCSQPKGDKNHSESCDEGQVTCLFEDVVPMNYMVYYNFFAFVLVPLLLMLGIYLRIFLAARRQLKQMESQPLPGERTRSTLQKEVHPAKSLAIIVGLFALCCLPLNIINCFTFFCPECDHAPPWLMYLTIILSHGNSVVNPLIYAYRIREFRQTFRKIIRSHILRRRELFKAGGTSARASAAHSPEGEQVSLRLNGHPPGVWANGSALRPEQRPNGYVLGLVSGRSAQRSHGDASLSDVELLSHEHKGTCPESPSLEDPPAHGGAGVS

The target of another experiment is T2, A2 adenosine receptor (Cavia porcellus, UniProt P46616).
T2 construct: from tissue; host or cells: guinea pig striatum membranes
The experiment is described as follows: A2 receptor binding with [3H]CGS 21,860 in striatum membranes (Table 5). On the set-up: species or system guinea pig.

Structures are written as SMILES.

What is called IC50 is the concentration that inhibits the measured activity by half. Lower therefore signals inhibition by little substance. For orientation: Ki means a dissociation constant, usually derived from enzyme kinetics or from competition with a known ligand. Turning to `CCCn1c(=O)c2[nH]c(C3CCCC3)nc2n(CCC)c1=O` [CPX, 8-cyclopentyl-1,3-dipropylxanthine, reference compound], the IC50 at A2 receptor stood at 1500 nM. On A2 adenosine receptor, the affinity corresponds to a Ki of 63 ± 5.4 nM.

These data come from patent US5736528A, “N^6 -(epoxynorborn-2-yl) adenosines as A1 adenosine receptor agonists” (priority 1995, dated 1998).
